Experimental data published in US20200268765A1, “METHOD OF TREATING MEDULLOBLASTOMA WITH AN EZH2 INHIBITOR” (Epizyme, Inc., priority 2015, published 2020).

Experiments:
medulloblastoma cells = assay: Medulloblastoma cell growth (total cells per milliliter over time); assay type: cell-based; conditions: 0.5 μM, 2 μM and 6 μM
Text: FIG. 26A is a graph showing the concentration of medulloblastoma cells (total cells per milliliter) as a function of time (days) following treatment with GSK-126, a small molecule inhibitor of EZH2.
FIG. 26B is a graph showing the concentration of medulloblastoma cells (total cells per milliliter) as a function of time (days) following treatment with UNC 1999, a small molecule inhibitor of EZH2.
FIG. 26C is a graph showing the concentration of medulloblastoma cells (total cells per milliliter) as a function of time (days) following treatment with tazemetostat (EPZ 6438), a small molecule inhibitor of EZH2.
FIG. 26D is a graph showing the concentration of medulloblastoma cells (total cells per milliliter) as a function of time (days) following treatment with GSK-126, UNC 1999, and tazemetostat (EPZ 6438).
Medulloblastoma cells are treated with either a negative control (DMSO) or varying concentrations of tazemetostat (EPZ 6438): 0.5 μM, 2 μM and 6 μM. The total cells per milliliter of culture were counted each day for 10 days.

[1] = system: primary medulloblastoma cells; conditions: BrdU for 4 hours after 4 days treatment; FIG. 28C
Experimental: FIG. 28A is a schematic diagram depicting the process by which primary medulloblastoma cell growth is evaluated ex vivo.
A slice culture of medulloblastoma was freshly isolated from a subject.
A patient having medulloblastoma underwent surgery to remove a slice of tumor tissue for testing. The medulloblastoma slice was cultured ex vivo on tissue supporting inserts (FIG. 28A). […] Following the treatment period, the cells of the slice culture were treated with BrdU for 4 hours prior to disaggregation and sorting by flow cytometry.

[2] = system: SMARCB1-deleted G401 cells; conditions: G401 versus RD cells, re-plated on day 7; FIGS. 10C-10F

Compound: CCN(c1cc(-c2ccc(CN3CCOCC3)cc2)cc(C(=O)NCc2c(C)cc(C)[nH]c2=O)c1C)C1CCOCC1 [tazemetostat]
- concentration dependence of the effect on medulloblastoma cell growth (medulloblastoma cells): concentration dependent
- number of cells synthesizing DNA (incorporation of BrdU) [1]: significantly decreased
- inhibition of proliferation [2]: Selective inhibition of proliferation
